# Patent US7399744B2, “Methods for affecting body composition” (Amylin Pharmaceuticals, Inc., priority 2004, dated 2008)
# Like-named read-outs stand apart in the source and are kept apart here.
# Assays:
# [1] = tested on: insulin-stimulated glycogen synthesis in soleus muscle; experiment: Soleus muscle assay; type: cell-based, rat; details: for EC50: rat soleus muscle, […] insulin, inhibition of glucose incorporation into glycogen
# amylin receptors = biological target: T1, amylin receptors (Rattus norvegicus, UniProt P32214+Q9JJ74); experiment: Receptor binding assay (competition with 125I Bolton Hunter rat amylin, basal forebrain membranes)
# T1 construct: This basal forebrain tissue, containing the nucleus accumbens and surrounding regions, was weighed and homogenized; from tissue; host or cells: rat basal forebrain (nucleus accumbens and surrounding regions) membranes
# T1 sequence (P32214 25-516): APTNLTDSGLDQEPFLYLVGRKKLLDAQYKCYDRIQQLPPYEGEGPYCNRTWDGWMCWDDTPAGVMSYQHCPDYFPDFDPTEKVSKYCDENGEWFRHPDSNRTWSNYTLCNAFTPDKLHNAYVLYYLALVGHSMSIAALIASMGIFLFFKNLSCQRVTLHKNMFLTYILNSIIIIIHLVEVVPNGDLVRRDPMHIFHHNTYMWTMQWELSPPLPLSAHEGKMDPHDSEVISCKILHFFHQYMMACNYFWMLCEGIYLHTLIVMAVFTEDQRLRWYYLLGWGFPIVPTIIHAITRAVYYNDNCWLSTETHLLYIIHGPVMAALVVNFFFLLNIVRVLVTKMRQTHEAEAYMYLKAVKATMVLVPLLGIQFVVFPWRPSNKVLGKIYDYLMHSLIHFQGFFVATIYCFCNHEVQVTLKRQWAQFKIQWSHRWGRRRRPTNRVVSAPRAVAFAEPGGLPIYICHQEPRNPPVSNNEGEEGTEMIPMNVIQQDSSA
# T1 sequence (Q9JJ74 27-148): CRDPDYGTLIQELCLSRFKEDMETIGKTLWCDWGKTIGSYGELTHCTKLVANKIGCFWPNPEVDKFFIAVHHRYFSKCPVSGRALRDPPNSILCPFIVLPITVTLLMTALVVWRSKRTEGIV
SMILES,amylin agonist action in the soleus muscle assay [1],antagonist activity as measured by the soleus muscle assay [1],EC50 [1],compete with amylin in the receptor binding assay (amylin receptors),IC50 (amylin receptors; read-out: Receptor Binding),IC50 (amylin receptors)
"CC[C@H](C)[C@H](NC(=O)[C@@H]1CCCN1C(=O)CNC(=O)[C@H](Cc1ccccc1)NC(=O)[C@H](CC(N)=O)NC(=O)[C@H](CC(N)=O)NC(=O)[C@H](CO)NC(=O)[C@H](CO)NC(=O)[C@H](CCCNC(=N)N)NC(=O)[C@@H](NC(=O)[C@H](CC(C)C)NC(=O)[C@H](Cc1ccccc1)NC(=O)[C@H](CC(N)=O)NC(=O)[C@H](C)NC(=O)[C@H](CC(C)C)NC(=O)[C@H](CCCNC(=N)N)NC(=O)[C@H](CCC(N)=O)NC(=O)[C@@H](NC(=O)[C@H](C)NC(=O)[C@@H]1CSSC[C@H](N)C(=O)N[C@@H](CC(N)=O)C(=O)N[C@@H]([C@@H](C)O)C(=O)N[C@@H](C)C(=O)N[C@@H]([C@@H](C)O)C(=O)N1)[C@@H](C)O)C(C)C)C(=O)N[C@@H](CC(C)C)C(=O)N1CCC[C@H]1C(=O)N1CCC[C@H]1C(=O)N[C@H](C(=O)N[C@@H](CC(N)=O)C(=O)N[C@H](C(=O)NCC(=O)N[C@@H](CO)C(=O)N[C@@H](CC(N)=O)C(=O)N[C@H](C(=O)N[C@@H](Cc1ccc(O)cc1)C(N)=O)[C@@H](C)O)C(C)C)[C@@H](C)O [des-^1Lys^18Arg^25,28,29Pro-h-Amylin]",act as amylin agonists,negligible,1860 pM,compete with amylin,21 pM,
CC[C@H](C)[C@H](NC(=O)[C@H](C)NC(=O)CNC(=O)[C@H](Cc1ccccc1)NC(=O)[C@H](CC(N)=O)NC(=O)[C@H](CC(N)=O)NC(=O)[C@H](CO)NC(=O)[C@H](CO)NC(=O)[C@H](Cc1c[nH]cn1)NC(=O)[C@@H](NC(=O)[C@H](CC(C)C)NC(=O)[C@H](Cc1ccccc1)NC(=O)[C@H](CC(N)=O)NC(=O)[C@H](C)NC(=O)[C@H](CC(C)C)NC(=O)[C@H](CCCNC(=N)N)NC(=O)[C@H](CCC(N)=O)NC(=O)[C@@H](NC(=O)[C@H](C)NC(=O)[C@@H]1CSSC[C@H](NC(=O)[C@@H](N)CCCCN)C(=O)N[C@@H](CC(N)=O)C(=O)N[C@@H]([C@@H](C)O)C(=O)N[C@@H](C)C(=O)N[C@@H]([C@@H](C)O)C(=O)N1)[C@@H](C)O)C(C)C)C(=O)N[C@@H](CC(C)C)C(=O)N[C@@H](CO)C(=O)N1CCC[C@H]1C(=O)N[C@H](C(=O)N[C@@H](CC(N)=O)C(=O)N[C@H](C(=O)NCC(=O)N[C@@H](CO)C(=O)N[C@@H](CC(N)=O)C(=O)N[C@H](C(=O)N[C@@H](Cc1ccc(O)cc1)C(N)=O)[C@@H](C)O)C(C)C)[C@@H](C)O [^29Pro-h-Amylin],,,3750 pM,,,64 pM
CC[C@H](C)[C@H](NC(=O)[C@H](C)NC(=O)CNC(=O)[C@H](Cc1ccccc1)NC(=O)[C@H](CC(N)=O)NC(=O)[C@H](CC(N)=O)NC(=O)[C@H](CO)NC(=O)[C@H](CO)NC(=O)[C@H](Cc1c[nH]cn1)NC(=O)[C@@H](NC(=O)[C@H](CC(C)C)NC(=O)[C@H](Cc1ccccc1)NC(=O)[C@H](CC(N)=O)NC(=O)[C@H](C)NC(=O)[C@H](CC(C)C)NC(=O)[C@H](CCCNC(=N)N)NC(=O)[C@H](CCC(N)=O)NC(=O)[C@@H](NC(=O)[C@H](C)NC(=O)[C@@H]1CSSC[C@H](NC(=O)[C@@H](N)CO)C(=O)N[C@@H](CC(N)=O)C(=O)N[C@@H]([C@@H](C)O)C(=O)N[C@@H](C)C(=O)N[C@@H]([C@@H](C)O)C(=O)N1)[C@@H](C)O)C(C)C)C(=O)N[C@@H](CC(C)C)C(=O)N[C@@H](CO)C(=O)N[C@@H](CO)C(=O)N[C@H](C(=O)N[C@@H](CC(N)=O)C(=O)N[C@H](C(=O)NCC(=O)N[C@@H](CO)C(=O)N[C@@H](CC(N)=O)C(=O)N[C@H](C(=O)N[C@@H](Cc1ccc(O)cc1)C(N)=O)[C@@H](C)O)C(C)C)[C@@H](C)O [^1Ser-h-Amylin],,,8700 pM,,,33 pM
"CC[C@H](C)[C@H](NC(=O)[C@@H]1CCCN1C(=O)CNC(=O)[C@H](Cc1ccccc1)NC(=O)[C@H](CC(N)=O)NC(=O)[C@H](CC(N)=O)NC(=O)[C@H](CO)NC(=O)[C@H](CO)NC(=O)[C@H](CCCNC(=N)N)NC(=O)[C@@H](NC(=O)[C@H](CC(C)C)NC(=O)[C@H](Cc1ccccc1)NC(=O)[C@H](CC(N)=O)NC(=O)[C@H](C)NC(=O)[C@H](CC(C)C)NC(=O)[C@H](CCCNC(=N)N)NC(=O)[C@H](CCC(N)=O)NC(=O)[C@@H](NC(=O)[C@H](C)NC(=O)[C@@H]1CSSC[C@H](N)C(=O)N[C@@H](CC(N)=O)C(=O)N[C@@H]([C@@H](C)O)C(=O)N[C@@H](C)C(=O)N[C@@H]([C@@H](C)O)C(=O)N1)[C@@H](C)O)C(C)C)C(=O)N[C@@H](CC(C)C)C(=O)N1CCC[C@H]1C(=O)N[C@@H](CO)C(=O)N[C@H](C(=O)N[C@@H](CC(N)=O)C(=O)N[C@H](C(=O)NCC(=O)N[C@@H](CO)C(=O)N[C@@H](CC(N)=O)C(=O)N[C@H](C(=O)N[C@@H](Cc1ccc(O)cc1)C(N)=O)[C@@H](C)O)C(C)C)[C@@H](C)O [des-^1Lys^18Arg^25,28Pro-h-Amylin]",act as amylin agonists,negligible,3770 pM,compete with amylin,82 pM,
"CC[C@H](C)[C@H](NC(=O)[C@@H]1CCCN1C(=O)CNC(=O)[C@H](Cc1ccccc1)NC(=O)[C@H](CC(N)=O)NC(=O)[C@H](CC(N)=O)NC(=O)[C@H](CO)NC(=O)[C@H](CO)NC(=O)[C@H](CCCNC(=N)N)NC(=O)[C@@H](NC(=O)[C@H](CC(C)C)NC(=O)[C@H](Cc1ccccc1)NC(=O)[C@H](CC(N)=O)NC(=O)[C@H](C)NC(=O)[C@H](CC(C)C)NC(=O)[C@H](CCCNC(=N)N)NC(=O)[C@H](CCC(N)=O)NC(=O)[C@@H](NC(=O)[C@H](C)NC(=O)[C@@H]1CSSC[C@H](NC(=O)[C@@H](N)CCCCN)C(=O)N[C@@H](CC(N)=O)C(=O)N[C@@H]([C@@H](C)O)C(=O)N[C@@H](C)C(=O)N[C@@H]([C@@H](C)O)C(=O)N1)[C@@H](C)O)C(C)C)C(=O)N[C@@H](CC(C)C)C(=O)N1CCC[C@H]1C(=O)N1CCC[C@H]1C(=O)N[C@H](C(=O)N[C@@H](CC(N)=O)C(=O)N[C@H](C(=O)NCC(=O)N[C@@H](CO)C(=O)N[C@@H](CC(N)=O)C(=O)N[C@H](C(=O)N[C@@H](Cc1ccc(O)cc1)C(N)=O)[C@@H](C)O)C(C)C)[C@@H](C)O [^18Arg^25,28,29Pro-h-Amylin]",act as amylin agonists,negligible,1250 pM,compete with amylin,21 pM,
"CC[C@H](C)[C@H](NC(=O)[C@@H]1CCCN1C(=O)CNC(=O)[C@H](Cc1ccccc1)NC(=O)[C@H](CC(N)=O)NC(=O)[C@H](CC(N)=O)NC(=O)[C@H](CO)NC(=O)[C@H](CO)NC(=O)[C@H](Cc1c[nH]cn1)NC(=O)[C@@H](NC(=O)[C@H](CC(C)C)NC(=O)[C@H](Cc1ccccc1)NC(=O)[C@H](CC(N)=O)NC(=O)[C@H](C)NC(=O)[C@H](CC(C)C)NC(=O)[C@H](CCCNC(=N)N)NC(=O)[C@H](CCC(N)=O)NC(=O)[C@@H](NC(=O)[C@H](C)NC(=O)[C@@H]1CSSC[C@H](NC(=O)[C@@H](N)CCCCN)C(=O)N[C@@H](CC(N)=O)C(=O)N[C@@H]([C@@H](C)O)C(=O)N[C@@H](C)C(=O)N[C@@H]([C@@H](C)O)C(=O)N1)[C@@H](C)O)C(C)C)C(=O)N[C@@H](CC(C)C)C(=O)N1CCC[C@H]1C(=O)N[C@@H](CO)C(=O)N[C@H](C(=O)N[C@@H](CC(N)=O)C(=O)N[C@H](C(=O)NCC(=O)N[C@@H](CO)C(=O)N[C@@H](CC(N)=O)C(=O)N[C@H](C(=O)N[C@@H](Cc1ccc(O)cc1)C(N)=O)[C@@H](C)O)C(C)C)[C@@H](C)O [^25,28Pro-h-Amylin]",,,13200 pM,,26 pM,
CC[C@H](C)[C@H](NC(=O)[C@H](C)NC(=O)CNC(=O)[C@H](Cc1ccccc1)NC(=O)[C@H](CC(N)=O)NC(=O)[C@H](CC(N)=O)NC(=O)[C@H](CO)NC(=O)[C@H](CO)NC(=O)[C@H](Cc1c[nH]cn1)NC(=O)[C@@H](NC(=O)[C@H](CC(C)C)NC(=O)[C@H](Cc1ccccc1)NC(=O)[C@H](CC(N)=O)NC(=O)[C@H](C)NC(=O)[C@H](CC(C)C)NC(=O)[C@H](CCCNC(=N)N)NC(=O)[C@H](CCC(N)=O)NC(=O)[C@@H](NC(=O)[C@H](C)NC(=O)[C@@H]1CSSC[C@H](NC(=O)[C@@H](N)CCCCN)C(=O)N[C@@H](CC(N)=O)C(=O)N[C@@H]([C@@H](C)O)C(=O)N[C@@H](C)C(=O)N[C@@H]([C@@H](C)O)C(=O)N1)[C@@H](C)O)C(C)C)C(=O)N[C@@H](CC(C)C)C(=O)N1CCC[C@H]1C(=O)N[C@@H](CO)C(=O)N[C@H](C(=O)N[C@@H](CC(N)=O)C(=O)N[C@H](C(=O)NCC(=O)N[C@@H](CO)C(=O)N[C@@H](CC(N)=O)C(=O)N[C@H](C(=O)N[C@@H](Cc1ccc(O)cc1)C(N)=O)[C@@H](C)O)C(C)C)[C@@H](C)O [^28Pro-h-Amylin],,,2640 pM,,15 pM,
